Data taken from patent publication US20220273666A1, “NANOPARTICLE FORMULATION OF BCL-2 INHIBITOR” (Recurium IP Holdings, LLC, priority 2019, published 2022).
pIC50: −log10 of the molar value.

Chains of the proteins cited; added tags and fusions are not shown.
UniProt P10415, whole entry: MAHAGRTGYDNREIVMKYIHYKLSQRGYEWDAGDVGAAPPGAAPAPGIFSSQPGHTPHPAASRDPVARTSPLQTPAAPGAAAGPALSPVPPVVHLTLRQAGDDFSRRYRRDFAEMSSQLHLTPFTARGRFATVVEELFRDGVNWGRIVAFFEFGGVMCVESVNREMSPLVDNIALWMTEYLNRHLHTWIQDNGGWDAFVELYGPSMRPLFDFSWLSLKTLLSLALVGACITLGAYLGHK

Biological target: Bcl-2 (Homo sapiens, UniProt P10415)
Assay: Bcl-2/Bcl-XL HTRF assay

## CC1(C)CCC(c2ccc(Cl)cc2)=C(CN2CCN(c3ccc(C(=O)NS(=O)(=O)c4ccc(N[C@H](CCN5CCOCC5)CSc5ccccc5)c(S(=O)(=O)C(F)(F)F)c4)cc3)CC2)C1 [ABT-263, Navitoclax, reference compound]
  pIC50: > 8.00
